Assay results: patent publication US20220296535A1, “Antibacterial Dosage Regime Using Cannabinoids” (Botanix Pharmaceuticals Limited, priority 2019, published 2022)

System: 132 strains of Staphylococcus aureus (106 MRSA and 26 MSSA strains)
Assay: MIC50/MIC90 micro-broth dilution, all strains
Conditions: out of the 132 strains

Structure (SMILES): CCC[C@@H]1C[C@@H](C(=O)N[C@@H]([C@H]2O[C@H](SC)[C@H](O)[C@@H](O)[C@H]2O)[C@H](C)Cl)N(C)C1.Cl.O [Clindamycin, Clindamycin hydrochloride monohydrate]
- number of resistant strains: 37
